Measured values reported in paper PMC6902473 (Clinical Epigenetics, 2019).

Conditions: human, in vivo, po
Source text: The assays were validated according to the common FDA and EMA guidelines on bioanalytical method validation.

Q: Which “t1/2, 25% Percentile” value does the source give for O=C(CCCCCCC(=O)Nc1ccccc1)NO [vorinostat] here?
A: 1.05 h
